This is an account of results in paper PMC10108392, “Rimonabant-Based Compounds Bearing Hydrophobic Amino Acid Derivatives as Cannabinoid Receptor Subtype 1 Ligands” (ACS Medicinal Chemistry Letters, 2023).

The structures appear in SMILES notation.

The experiment relates to mice. Put plainly: Formalin test. To be noted: 100 μg in 20 μL s.c., 15 min before formalin. The class given is in vivo, mouse. On the procedure:
testing. […] Then, the compounds were
Compounds were prepared by freshly diluting
Then, these solutions were injected for
The total time the animal spent licking or biting its paw was calculated.
Then, paw edema was calculated as formerly
Paw volume was quantified using a
Data Analysis and Statistics
Statistically significant differences between
Data were considered statistically
The data and statistical analyses respected the recommendations on experimental design and analysis.

For `CNC(=O)[C@@H](NC(=O)c1nn(-c2ccc(Cl)cc2)c(-n2cccc2)c1C)C(C)(C)C` [Compound 34, RS2691-tLeu-NHCH3], the “formalin test, early phase (licking activity 0 to 10 min)” value was “slightly more effective than the pure CB1 agonist WIN55,212-2”.
